Test results: ChEMBL document CHEMBL6134899 (J Med Chem, 2025)
The source made the active and inactive calls. The rule behind the calls is not given here.

By UniProt entry, the sequences of proteins in these tests, tags left out.
UniProt Q01959, whole entry: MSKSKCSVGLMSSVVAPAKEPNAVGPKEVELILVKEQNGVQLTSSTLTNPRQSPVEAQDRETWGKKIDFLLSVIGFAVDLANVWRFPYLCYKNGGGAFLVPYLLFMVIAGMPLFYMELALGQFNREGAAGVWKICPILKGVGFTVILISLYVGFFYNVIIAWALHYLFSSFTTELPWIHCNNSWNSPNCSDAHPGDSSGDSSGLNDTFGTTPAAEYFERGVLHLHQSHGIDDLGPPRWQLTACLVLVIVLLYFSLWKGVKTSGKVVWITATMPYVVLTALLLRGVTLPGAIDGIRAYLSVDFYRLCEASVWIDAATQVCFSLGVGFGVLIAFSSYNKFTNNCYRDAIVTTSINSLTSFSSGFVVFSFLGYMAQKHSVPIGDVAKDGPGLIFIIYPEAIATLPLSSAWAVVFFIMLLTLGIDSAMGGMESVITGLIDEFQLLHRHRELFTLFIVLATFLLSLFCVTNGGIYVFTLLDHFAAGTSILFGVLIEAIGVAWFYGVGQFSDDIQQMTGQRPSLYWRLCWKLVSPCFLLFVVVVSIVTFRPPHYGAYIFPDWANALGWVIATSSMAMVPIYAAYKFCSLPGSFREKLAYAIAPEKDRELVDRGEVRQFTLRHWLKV
UniProt P31645, whole entry, looked up: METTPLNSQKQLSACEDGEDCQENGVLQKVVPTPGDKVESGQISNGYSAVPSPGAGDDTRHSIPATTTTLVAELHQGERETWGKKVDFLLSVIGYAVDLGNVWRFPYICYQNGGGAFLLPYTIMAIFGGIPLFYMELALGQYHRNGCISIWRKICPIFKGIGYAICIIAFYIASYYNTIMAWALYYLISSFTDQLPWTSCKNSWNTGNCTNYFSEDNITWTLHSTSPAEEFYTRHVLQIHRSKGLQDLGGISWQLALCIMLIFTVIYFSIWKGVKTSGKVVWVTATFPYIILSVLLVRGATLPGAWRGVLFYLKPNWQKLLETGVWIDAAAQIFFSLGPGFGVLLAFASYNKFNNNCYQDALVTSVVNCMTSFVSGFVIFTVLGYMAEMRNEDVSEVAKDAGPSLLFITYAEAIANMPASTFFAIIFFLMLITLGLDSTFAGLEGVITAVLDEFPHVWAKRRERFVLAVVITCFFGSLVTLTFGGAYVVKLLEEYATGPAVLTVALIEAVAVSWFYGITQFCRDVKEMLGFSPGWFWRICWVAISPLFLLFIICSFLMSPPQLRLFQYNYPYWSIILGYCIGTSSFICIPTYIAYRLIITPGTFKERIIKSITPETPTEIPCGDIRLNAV

Columns and labels:
[1] = target: Sodium-dependent dopamine transporter (Homo sapiens) (UniProt Q01959); assay: Displacement of [3H]BTCP from recombinant human DAT receptor expressed in CHO cells at 10 uM incubated for 120 mins by scintillation counting method; type: cell-based
Method in brief: (§1)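 Radioligand displacement run by a commercial provider, with test compound at 10 μM. Reported as mean ± SD of two independent measurements, each in duplicate.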

[2] = target: Sodium-dependent serotonin transporter (Homo sapiens) (UniProt P31645); assay: Displacement of [3H]imipramine from recombinant human SERT receptor expressed in CHO cells at 10 uM incubated for 60 mins by scintillation counting method; type: cell-based; method in brief: as §1
[3] = target: Sodium-dependent dopamine transporter (Homo sapiens) (UniProt Q01959); assay: Inhibition of DAT receptor (unknown origin) at 100 nM
[4] = target: Sodium-dependent serotonin transporter (Homo sapiens) (UniProt P31645); assay: Inhibition of SERT receptor (unknown origin) at 100 nM

c1ccc(CN2CCCC[C@@H]3NCC[C@H]32)cc1
Activity [1]: Active
Activity [2]: Active

c1ccc(CN2CCCC[C@H]3NCC[C@H]32)cc1
inhibition [3]: Active
inhibition [4]: Active

c1ccc(CN2CCCCC3NCCC32)cc1 (racemic)
Activity [1]: Active
Activity [2]: Active
